Measurements reported in patent US20190211024A1 (priority 2016, published 2019).

What follows are substances tested on cell culture (assay: Minimal toxic dose in vitro).
With “Sodium salt of 2-methylthio-4-tert-butyl-6-(2′-amino-T-carboxyethylthio)-1,2,4-triazolo[5,1-c]1,2,4-triazine-7-one hydrate” the Minimal toxic dose was 200 µg/mL.
“Triethylammonium salt of (2′-amino-2′-carboxyethylthio)-6-nitro-1,2,4-triazolo[5,1-c][1,2,4]triazine hydrate” gave a Minimal toxic dose of 200 µg/mL.
With “2-iso-Propylsulfinyl-6-nitro-l2,4-triazolo[5,1-c]1,2,4-triazine-7-one” the Minimal toxic dose was >200 µg/mL.
In the case of “2-Methylsulfonyl-4-methyl-6-nitro-1,2,4-triazolo[5,1-cy]1,2,3-triazine-7-one”, the Minimal toxic dose is reported as >100 µg/mL.
In the case of “2-Methylsulfonyl-4-pivaloyloxymethyl-6-nitro-1,2,4-triazolo[5,1-c]1,2,3-triazine-7-one”, the Minimal toxic dose is reported as >100 µg/mL.
For “2-Methyisulfonyl-4-tert-butyl-6-nitro-1,2,4-triazolo[5,1-c]1,2,3-triazine-7-one”, the Minimal toxic dose was >100 µg/mL.
“Sodium salt of 2-methylthio-4-pivaloyloxymethyl-6-(2+-amino-2′-carboxyethylthio)-1,2,4triazolo[5,1-c]1,2,4-triazine-7-one hydrate” was tested, and the Minimal toxic dose was 200 µg/mL.
For “Sodium salt of 2-methylthio-4-methyl-6-(2′-amino-2′-carboxyethylthio)-1,2,4-triazolo[5,1-c]1,2,4-triazine-7-one hydrate”, the Minimal toxic dose was >100 µg/mL.
“Sodium salt of 2-methylthio-4-ethyl-6-(2amino-2′-carboxyethylthio)-1,2,4-triazolo[5,1-c]1,2,4-triazine-7-one hydrate” was tested, and the Minimal toxic dose was >100 µg/mL.
For “2-Methylsulfonyl-4-ethyl-6-nitro-1,2,4-triazolo[5,1-c]1,2,3, -triazine-7-one”, the Minimal toxic dose was >100 µg/mL.
